Measured values as given in ChEMBL document CHEMBL5154701, “Thieno[2,3-d]pyrimidine-2,4(1H,3H)-dione Derivative Inhibits d-Dopachrome Tautomerase Activity and Suppresses the Proliferation of Non-Small Cell Lung Cancer Cells” (J Med Chem, 2022).

Organism: Homo sapiens
Conditions: dose 100.0 µM

## CCCCNC(=O)c1cc(-c2ccc(Cl)cc2)sc1N
  ΔTm: 2.5 °C
